Measured values from paper PMC11639629, “Synthesis and Biological Evaluation of Deoxycyclophellitols as Human Retaining β‐Glucosidase Inhibitors” (Chemistry (Weinheim an Der Bergstrasse, Germany), 2024).

Tested on: GBA1, GBA2 and GBA3
Type: binding, human

## CN1/C(=C/C=C/C=C/C2=[N+](CCCCCC(=O)NCc3cn(CCCCCCCCN4[C@@H]5[C@H](CO)C[C@H](O)C[C@@H]54)nn3)c3ccccc3C2(C)C)C(C)(C)c2ccccc21 (stereo partly shown) [Compound 5]
  selectivity in cABPP with 2 (300 nM): selectivity of 5 for GBA2/3 over GBA1
